The source of these data is patent US9694016B2 (Novartis AG, priority 2013, dated 2017).

The chains behind the UniProt entries cited, without tags or fusion partners.
UniProt P04049, whole entry Y340E/Y341E: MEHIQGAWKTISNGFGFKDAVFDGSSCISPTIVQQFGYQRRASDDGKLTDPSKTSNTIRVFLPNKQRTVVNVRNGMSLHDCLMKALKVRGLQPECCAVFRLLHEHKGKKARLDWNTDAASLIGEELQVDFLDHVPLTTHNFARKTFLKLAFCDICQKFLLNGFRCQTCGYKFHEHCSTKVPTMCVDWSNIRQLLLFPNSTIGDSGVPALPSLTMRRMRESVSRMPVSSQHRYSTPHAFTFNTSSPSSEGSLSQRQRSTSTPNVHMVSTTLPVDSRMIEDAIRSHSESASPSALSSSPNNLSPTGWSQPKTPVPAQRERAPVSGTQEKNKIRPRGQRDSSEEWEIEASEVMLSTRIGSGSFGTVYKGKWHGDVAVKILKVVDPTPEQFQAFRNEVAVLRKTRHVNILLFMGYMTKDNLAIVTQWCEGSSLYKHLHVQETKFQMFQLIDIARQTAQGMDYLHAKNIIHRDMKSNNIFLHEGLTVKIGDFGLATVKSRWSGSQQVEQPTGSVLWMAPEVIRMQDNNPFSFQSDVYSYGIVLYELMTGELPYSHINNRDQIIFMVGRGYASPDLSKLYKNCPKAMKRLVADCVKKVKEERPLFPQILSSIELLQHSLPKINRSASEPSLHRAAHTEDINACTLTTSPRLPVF

Molecules are shown by their SMILES.

The target of the first test is C-Raf FL (full-length C-Raf protein, Y340E and Y341E activating mutations) (Homo sapiens (Human), UniProt P04049, Y340E/Y341E). Format: biochemical. As to conditions: AlphaScreen, 60 min pre-incubation, 1 hour reaction; read-out: c-Raf FL IC-50. (In Alpha technology, singlet oxygen from a donor bead excites a nearby acceptor bead.)
For `COc1nnc(-c2cc(NC(=O)c3cnnc(C(C)(C)C#N)c3)ccc2C)cc1N1CCOCC1` [Example 557, 6-(2-cyanopropan-2-yl)-N-(3-(6-methoxy-5-morpholinopyridazin-3-yl)-4-methylphenyl)pyridazine-4-carboxamide], the IC50 came to 2.2 nM. In the case of `Cc1ncc(NC(=O)c2cnnc(C(F)(F)F)c2)cc1-c1cc(N2CCOCC2)c(OC2CCOCC2)nn1` [Example 631, N-(6-methyl-5-(5-morpholino-6-((tetrahydro-2H-pyran-4-yl)oxy)pyridazin-3-yl)pyridin-3-yl)-6-(trifluoromethyl)pyridazine-4-carboxamide], the IC50 is 0.8 nM.

`CCNc1nc(-c2cc(NC(=O)c3ccnc(C(C)(C)C#N)c3)cnc2C)cc(N2CCOCC2)n1` [Example 718, 2-(2-cyanopropan-2-yl)-N-(5-(2-(ethylamino)-6-morpholinopyrimidin-4-yl)-6-methylpyridin-3-yl)isonicotinamide]: the IC50 was found to be 2.3 nM.

Regarding `Cc1ccc(NC(=O)c2ccnc(C(C)C)c2)cc1-c1cc(N2CCOCC2)nc(OC2CNC2)n1` [Example 778, N-(3-(2-(azetidin-3-yloxy)-6-morpholinopyrimidin-4-yl)-4-methylphenyl)-2-isopropylisonicotinamide], the IC50 was 0.9 nM.

Turning to `Cc1ncc(NC(=O)c2cccc(C(F)(F)F)c2)cc1-c1cc(N2CCOCC2)nc(NC(C)(C)CO)n1` [Example 752, N-(5-(2-((1-hydroxy-2-methylpropan-2-yl)amino)-6-morpholinopyrimidin-4-yl)-6-methylpyridin-3-yl)-3-(trifluoromethyl)benzamide], the IC50 is 0.4 nM. Same read-out and setting: under `Cc1ccc(NC(=O)c2cccc(C(F)(F)F)c2)cc1-c1nc(N2CCOCC2)c2cccnc2n1` [Example 833, N-(4-methyl-3-(4-morpholinopyrido[2,3-d]pyrimidin-2-yl)phenyl)-3-(trifluoromethyl)benzamide] stands 0.2 nM. For the compound `Cc1ccc(NC(=O)c2ccnc(C(C)(C)C#N)c2)cc1-c1cc(N2CCOCC2)nc(NC2CNC2)n1` [Example 786, N-(3-(2-(azetidin-3-ylamino)-6-morpholinopyrimidin-4-yl)-4-methylphenyl)-2-(2-cyanopropan-2-yl)isonicotinamide], the IC50 amounted to 3.4 nM. The same measure, in the same setting: under `Cc1ncc(NC(=O)c2cccc(C(F)(F)F)c2)cc1-c1cc(N2CCOCC2)nc(NCCO)n1` [Example 735, N-(5-(2-((2-hydroxyethyl)amino)-6-morpholinopyrimidin-4-yl)-6-methylpyridin-3-yl)-3-(trifluoromethyl)benzamide] stands 0.5 nM; under `Cc1ccc(NC(=O)c2ccnc(C(F)F)c2)cc1-c1cc(N2CCOCC2)c(OC(C)C)nn1` [Example 593, 2-(difluoromethyl)-N-(3-(6-isopropoxy-5-morpholinopyridazin-3-yl)-4-methylphenyl)isonicotinamide], 0.2 nM.

`Cc1ccc(NC(=O)c2ccnc(C(C)(C)F)c2)cc1-c1cc(N2CCOCC2)c(OC(C)C)nn1` [Example 595, 2-(2-fluoropropan-2-yl)-N-(3-(6-isopropoxy-5-morpholinopyridazin-3-yl)-4-methylphenyl)isonicotinamide]: the IC50 was 0.2 nM.

Staying with this test, now noted: AlphaScreen, 60 min pre-incubation, reaction 1 hour at room temperature; read-out: c-Raf FL IC-50.
Take `Cc1ccc(NC(=O)c2cnnc(C(C)(C)C#N)c2)cc1-c1cc(OC2CCOCC2)nc(N2CCOCC2)c1` [Example 1153, 6-(2-cyanopropan-2-yl)-N-(4-methyl-3-(2-morpholino-6-((tetrahydro-2H-pyran-4-yl)oxy)pyridin-4-yl)phenyl)pyridazine-4-carboxamide]: the IC50 was 0.49 nM. On the same count and under the same terms, under `Cc1ncc(NC(=O)c2ccnc(C(C)C)c2)cc1-c1cc(N2CCOCC2)nc(N2CC(O)C2)c1` [Example 1081, N-(2′-(3-hydroxyazetidin-1-yl)-2-methyl-6′-morpholino-[3,4′-bipyridin]-5-yl)-2-isopropylisonicotinamide] stands 2.01 nM; under `Cc1ncc(NC(=O)c2ccnc(C(C)(F)F)c2)cc1-c1cc(N2CCOCC2)c2nccn2n1` [Example 871, 2-(1,1-difluoroethyl)-N-(6-methyl-5-(8-morpholinoimidazo[1,2-b]pyridazin-6-yl)pyridin-3-yl)isonicotinamide], 0.1 nM; under `Cc1ncc(NC(=O)c2cncc(C(F)(F)F)c2)cc1-c1cc(N2CCOCC2)c(OCC(F)F)nn1` [Example 917, N-(5-(6-(2,2-difluoroethoxy)-5-morpholinopyridazin-3-yl)-6-methylpyridin-3-yl)-5-(trifluoromethyl)nicotinamide], 0.91 nM. Still for that read-out and setting: the value for `Cc1ncc(NC(=O)c2cc(C(C)(C)C#N)ccn2)cc1-c1cnc(OC2CC3(COC3)C2)c(N2CCOCC2)c1` [Example 970, N-(6′-(2-oxaspiro[3.3]heptan-6-yloxy)-2-methyl-5′-morpholino-[3,3′-bipyridin]-5-yl)-4-(2-cyanopropan-2-yl)picolinamide] was 2.34 nM; that for `Cc1ccc(NC(=O)c2cnnc(C(F)(F)F)c2)cc1-c1cc(N2CCOCC2)nc(N2CC(C)(O)C2)c1` [Example 1073, N-(3-(2-(3-hydroxy-3-methylazetidin-1-yl)-6-morpholinopyridin-4-yl)-4-methylphenyl)-6-(trifluoromethyl)pyridazine-4-carboxamide] was 0.55 nM.

Take `Cc1ccc(NC(=O)c2cccc(C(C)(C)S(C)(=O)=O)c2)cc1-c1cc(N2CCOCC2)nc(N2CC(O)C2)c1` [Example 1099, N-(3-(2-(3-hydroxyazetidin-1-yl)-6-morpholinopyridin-4-yl)-4-methylphenyl)-3-(2-(methylsulfonyl)propan-2-yl)benzamide]: the IC50 came out at 3.17 nM.

Staying with this test, now noted: Table 2; AlphaScreen, 1 hour reaction; read-out: c-Raf FL IC-50.
With `Cc1ncc(NC(=O)c2ccnc(C(C)(F)F)c2)cc1-c1cc(N2CCOCC2)c(=O)n(C)c1` [Example 391, 2-(1,1-difluoroethyl)-N-(1′,2-dimethyl-5′-morpholino-6′-oxo-1′,6′-dihydro-[3,3′-bipyridin]-5-yl)isonicotinamide], the IC50 worked out at 4.5 nM. Same read-out and setting: the value for `Cc1ncc(NC(=O)c2cccc(C(C)(C)C#N)c2)cc1-c1cc(N2CCOCC2)c(=O)n(C)c1` [Example 389, 3-(2-cyanopropan-2-yl)-N-(1′,2-dimethyl-5′-morpholino-6′-oxo-1′,6′-dihydro-[3,3′-bipyridin]-5-yl)benzamide] was 14.1 nM; that for `CCOc1ncc(-c2cc(NC(=O)c3ccnc(C(C)C)c3)cnc2C)cc1N1CCOCC1` [Example 252, N-(6′-ethoxy-2-methyl-5′-morpholino-[3,3′-bipyridin]-5-yl)-2-isopropylisonicotinamide] was 0.8 nM. On the same count and under the same terms, under `Cc1ccc(NC(=O)c2ccnc(C(C)(C)C#N)c2)cc1-c1cc(N2CCOCC2)c(=O)n(C)n1` [Example 191, 2-(2-cyanopropan-2-yl)-N-(4-methyl-3-(1-methyl-5-morpholino-6-oxo-1,6-dihydropyridazin-3-yl)phenyl)isonicotinamide] stands 1.1 nM. On the same count and under the same terms, under `Cc1ncc(NC(=O)c2ccnc(C3(C#N)CC3)c2)cc1-c1cnc(Cl)c(N2CCOCC2)c1` [Example 288, N-(6′-chloro-2-methyl-5-morpholino-[3,3′-bipyridin]-5-yl)-2-(1-cyanocyclopropyl)isonicotinamide] stands 1.2 nM; under `CCOc1ncc(-c2cc(NC(=O)c3ccnc(C(F)F)c3)ccc2C)cc1N1CCOCC1` [Example 237, 2-(difluoromethyl)-N-(3-(6-ethoxy-5-morpholinopyridin-3-yl)-4-methylphenyl)isonicotinamide], 0.2 nM. Regarding `Cc1ccc(NC(=O)c2cc(C(C)(C)C)no2)cc1-c1cc(N2CCOCC2)nc(N2CCOCC2)n1` [Example 24, 3-(tert-butyl)-N-(3-(2,6-dimorpholinopyrimidin-4-yl)-4-methylphenyl)isoxazole-5-carboxamide], the IC50 is 0.3 nM.

For `Cc1ncc(NC(=O)c2ccnc(C(C)C)c2)cc1-c1cnc(C#N)c(N2CCOCC2)c1` [Example 251, N-(6′-cyano-2-methyl-5′-morpholino-[3,3′-bipyridin]-5-yl)-2-isopropylisonicotinamide], the IC50 turned out to be 0.5 nM.

In the case of `Cc1ncc(NC(=O)c2cccc(OC(C)C)c2)cc1-c1cc(N2CCOCC2)c(=O)n(C)c1` [Example 398, N-(1′,2-dimethyl-5′-morpholino-6′-oxo-1′,6′-dihydro-[3,3′-bipyridin]-5-yl)-3-isopropoxybenzamide], the IC50 was 3.1 nM. The same measure, in the same setting: under `Cc1ccc(NC(=O)c2ccnc(C(C)(C)C#N)c2)cc1-c1cc(C2CCOCC2)nc(N2CCOCC2)c1` [Example 106, 2-(2-cyanopropan-2-yl)-N-(4-methyl-3-(2-morpholino-6-(tetrahydro-2H-pyran-4-yl)pyridin-4-yl)phenyl)isonicotinamide] stands 0.4 nM; under `Cc1ncc(NC(=O)c2ccnc(C(C)(C)C)c2)cc1-c1cc(N2CCOCC2)c(=O)n(C)c1` [Example 399, 2-(tert-butyl)-N-(1′,2-dimethyl-5′-morpholino-6′-oxo-1′,6′-dihydro-[3,3′-bipyridin]-5-yl)isonicotinamide], 14.8 nM.

For the compound `Cc1ccc(NC(=O)c2cccc(C(F)(F)F)c2)cc1-c1cnc(OC2CCOCC2)c(N2CCOCC2)c1` [Example 132, N-(4-methyl-3-(5-morpholino-6-((tetrahydro-2H-pyran-4-yl)oxy)pyridin-3-yl)phenyl)-3-(trifluoromethyl)benzamide], the IC50 stood at 0.5 nM. On the same count and under the same terms, under `Cc1ncc(NC(=O)c2cccc(C(F)(F)F)c2)cc1-c1ccnc(N2CCOCC2)c1` [Example 96, N-(2-methyl-2′-morpholino-[3,4′-bipyridin]-5-yl)-3-(trifluoromethyl)benzamide] stands 0.2 nM. For the compound `CCOc1ncc(-c2cc(NC(=O)c3cccc(C(F)F)c3)ccc2C)cc1N1CCOCC1` [Example 231, 3-(difluoromethyl)-N-(3-(6-ethoxy-5-morpholinopyridin-3-yl)-4-methylphenyl)benzamide], the IC50 came out at 0.1 nM. The same measure, in the same setting: the value for `CCOc1ncc(-c2cc(NC(=O)c3cc(C4CC4)on3)cnc2C)cc1N1CCOCC1` [Example 245, 5-cyclopropyl-N-(6′-ethoxy-2-methyl-5′-morpholino-[3,3′-bipyridin]-5-yl)isoxazole-3-carboxamide] was 0.6 nM.
